Columns and labels:
[1] = molecular target: guinea pig histamine H4 receptor (Cavia porcellus, UniProt Q91ZY3); experiment: biochemical
[2] = molecular target: rat histamine H4 receptor (Rattus norvegicus, UniProt Q91ZY1); experiment: biochemical

Protein sequences, listed by entry. Tags and fused reporters are not part of them. Lines headed by an entry give the natural chain unless they say otherwise; changes in a name come on top. Residues count along the entry.
UniProt Q91ZY3, 1-389: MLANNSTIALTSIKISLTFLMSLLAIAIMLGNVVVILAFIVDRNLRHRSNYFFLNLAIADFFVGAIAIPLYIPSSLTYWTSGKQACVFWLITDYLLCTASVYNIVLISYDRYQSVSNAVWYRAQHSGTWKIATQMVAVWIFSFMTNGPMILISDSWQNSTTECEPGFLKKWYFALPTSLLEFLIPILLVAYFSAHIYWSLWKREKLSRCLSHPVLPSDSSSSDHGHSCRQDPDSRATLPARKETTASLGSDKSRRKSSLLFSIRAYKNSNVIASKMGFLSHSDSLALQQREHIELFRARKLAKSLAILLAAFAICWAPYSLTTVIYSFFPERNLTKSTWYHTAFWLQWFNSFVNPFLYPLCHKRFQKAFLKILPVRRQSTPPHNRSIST
UniProt Q91ZY1: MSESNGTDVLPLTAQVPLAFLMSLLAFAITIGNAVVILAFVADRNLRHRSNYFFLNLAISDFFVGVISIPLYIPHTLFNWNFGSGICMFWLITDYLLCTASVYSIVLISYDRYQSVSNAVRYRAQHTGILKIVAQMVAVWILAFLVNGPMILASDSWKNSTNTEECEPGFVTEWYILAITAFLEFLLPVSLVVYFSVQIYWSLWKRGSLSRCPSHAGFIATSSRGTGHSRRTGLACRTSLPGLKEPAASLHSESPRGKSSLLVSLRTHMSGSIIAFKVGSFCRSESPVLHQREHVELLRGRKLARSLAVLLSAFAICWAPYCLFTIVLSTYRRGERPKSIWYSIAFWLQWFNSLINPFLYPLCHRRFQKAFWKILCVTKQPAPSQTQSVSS

For `CNC(=S)NCCCCc1cnc[nH]1` [Burimamide], the Ki [1] was 840 nM and the Ki [2] was 958 nM.

Reference: patent US20030133931A1 (priority 2001, published 2003)
